Assay results reported in patent US8530520B2, “Cycloalkyl-dione derivatives and methods of their use” (The Trustees Of The University Of Pennsylvania, priority 2011, dated 2013).
Read-outs that look alike come from different tables or passages of the source.

Experiments:
[1] = target: T1, mouse TP receptor (Mus musculus, UniProt P30987); experiment: IP-One (IP1 HTRF) functional assay, TP receptor antagonist activity
T1 sequence (P30987 1-341): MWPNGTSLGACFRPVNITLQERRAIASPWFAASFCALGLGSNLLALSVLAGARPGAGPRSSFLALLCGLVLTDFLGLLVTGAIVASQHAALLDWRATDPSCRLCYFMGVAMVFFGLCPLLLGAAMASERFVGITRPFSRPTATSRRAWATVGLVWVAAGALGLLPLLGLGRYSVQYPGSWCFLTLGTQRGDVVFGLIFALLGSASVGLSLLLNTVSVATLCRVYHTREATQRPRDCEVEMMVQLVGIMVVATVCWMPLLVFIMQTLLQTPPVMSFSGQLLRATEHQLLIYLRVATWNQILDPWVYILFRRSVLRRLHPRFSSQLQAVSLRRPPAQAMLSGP

[2] = target: T2, human TP receptor (Homo sapiens, UniProt P21731); experiment: as above; type: cell-based; set-up: expressed in transfected cells; conditions: QBI-HEK 293A cells stably transfected with human TP receptor; agonist I-BOP 1.6 nM; IP1 by HTRF; read-out: TP Receptor Antagonist Activity IPOne Assay Human TP
T2 sequence (P21731 1-343): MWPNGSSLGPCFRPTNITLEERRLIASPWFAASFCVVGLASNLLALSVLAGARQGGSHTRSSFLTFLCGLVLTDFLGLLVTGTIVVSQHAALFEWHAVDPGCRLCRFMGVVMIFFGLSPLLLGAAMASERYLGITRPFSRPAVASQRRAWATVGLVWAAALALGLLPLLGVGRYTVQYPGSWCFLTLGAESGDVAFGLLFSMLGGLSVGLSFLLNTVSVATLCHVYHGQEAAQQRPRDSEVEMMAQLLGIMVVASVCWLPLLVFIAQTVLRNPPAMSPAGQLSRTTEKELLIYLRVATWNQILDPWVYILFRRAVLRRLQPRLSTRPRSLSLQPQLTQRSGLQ

[3] = read-out: TP Receptor Antagonist Activity IPOne Assay Mouse TP, QBI-HEK 293A cells stably transfected with mouse TP receptor, agonist I-BOP 1.6 nM, IP1 by HTRF

O=C(O)CCc1cccc(CCNS(=O)(=O)c2ccc(Cl)cc2)c1 [Compound 12, reference compound]
IC50 [1, 3]: 27 nM

CC1=C(OCC(C)C)CC(Cc2cccc(CCNS(=O)(=O)c3ccc(Cl)cc3)c2)C1=O (stereo not shown) [Compound 37, 4-Chloro-N-(3-((4-isobutoxy-3-methyl-2-oxocyclopent-3-en-1-yl)methyl)phenethyl)benzenesulfonamide]
IC50 [1, 3]: 1790 nM

CCC1=C(OCC(C)C)CC(Cc2cccc(CCNS(=O)(=O)c3ccc(Cl)cc3)c2)C1=O (stereo not shown) [Compound 38, 4-Chloro-N-(3-((3-ethyl-4-isobutoxy-2-oxocyclopent-3-en-1-yl)methyl)phenethyl)-benzenesulfonamide]
IC50 [1, 3]: 463 nM
IC50 [2]: 3800 nM

CC(C)COC1=C(C(C)C)C(=O)C(Cc2cccc(CCNS(=O)(=O)c3ccc(Cl)cc3)c2)C1 (stereo not shown) [Compound 39, 4-Chloro-N-(3-((4-isobutoxy-3-isopropyl-2-oxocyclopent-3-en-1-yl)methyl)phenethyl)benzenesulfonamide]
IC50 [1, 3]: 259 nM
IC50 [2]: 5300 nM

CC(C)COC1=C(CC2CC2)C(=O)C(Cc2cccc(CCNS(=O)(=O)c3ccc(Cl)cc3)c2)C1 (stereo not shown) [Compound 40, 4-Chloro-N-(3-((3-(cyclopropylmethyl)-4-isobutoxy-2-oxocyclopent-3-en-1-yl)methyl)phenethyl)benzenesulfonamide]
IC50 [1, 3]: 2520 nM
IC50 [2]: 21900 nM

O=C1C=C(O)C(Cc2cccc(CCNS(=O)(=O)c3ccc(Cl)cc3)c2)C1 (stereo not shown) [Compound 41, 4-Chloro-N-(3-((2-hydroxy-4-oxocyclopent-2-en-1-yl)methyl)phenethyl)benzenesulfonamide]
IC50 [1, 3]: 52 nM
IC50 [2]: 250 nM

CC1=C(O)C(Cc2cccc(CCNS(=O)(=O)c3ccc(Cl)cc3)c2)CC1=O (stereo not shown) [Compound 42, 4-Chloro-N-(3-((2-hydroxy-3-methyl-4-oxocyclopent-2-en-1-yl)methyl)phenethyl)-benzenesulfonamide]
IC50 [1, 3]: 3.1 nM
IC50 [2]: 131 nM

CCC1=C(O)CC(Cc2cccc(CCNS(=O)(=O)c3ccc(Cl)cc3)c2)C1=O (stereo not shown) [Compound 43, 4-Chloro-N-(3-((3-ethyl-4-hydroxy-2-oxocyclopent-3-en-1-yl)methyl)phenethyl)-benzenesulfonamide]
IC50 [1, 3]: 9.4 nM
IC50 [2]: 171 nM

CC(C)C1=C(O)CC(Cc2cccc(CCNS(=O)(=O)c3ccc(Cl)cc3)c2)C1=O (stereo not shown) [Compound 44, 4-Chloro-N-(3-((4-hydroxy-3-isopropyl-2-oxocyclopent-3-en-1-yl)methyl)phenethyl)benzenesulfonamide]
IC50 [1, 3]: 18 nM
IC50 [2]: 198 nM

O=C1C(CC2CC2)=C(O)CC1Cc1cccc(CCNS(=O)(=O)c2ccc(Cl)cc2)c1 (stereo not shown) [Compound 45, 4-Chloro-N-(3-((3-(cyclopropylmethyl)-4-hydroxy-2-oxocyclopent-3-en-1-yl)methyl)phenethyl)benzenesulfonamide]
IC50 [1]: 5.8 nM
IC50 [2]: 41 nM

O=C1CCC(O)=C1Cc1cccc(CCNS(=O)(=O)c2ccc(Cl)cc2)c1 [Compound 50, 4-Chloro-N-(3-((2-hydroxy-5-oxocyclopent-1-en-1-yl)methyl)phenethyl)benzenesulfonamide]
IC50 [1]: > 10000 nM

O=C1CCC(O)=C1CCc1cccc(CCNS(=O)(=O)c2ccc(Cl)cc2)c1 [Compound 58, 4-Chloro-N-(3-(2-(2-hydroxy-5-oxocyclopent-1-en-1-yl)ethyl)phenethyl)-benzenesulfonamide]
IC50 [1, 3]: 1230 nM

O=C1C(C2CCCCC2)=C(O)CC1Cc1cccc(CCNS(=O)(=O)c2ccc(Cl)cc2)c1 (stereo not shown) [Compound 51499, 4-Chloro-N-(3-((3-cyclohexyl-4-hydroxy-2-oxocyclopent-3-en-1-yl)methyl)phenethyl)benzenesulfonamide]
IC50 [1]: 5.6 nM
IC50 [2]: 58 nM

O=C1C=C(O)CC(c2cccc(CCNS(=O)(=O)c3ccc(Cl)cc3)c2)C1 (stereo not shown) [Compound 51523, 4-Chloro-N-(2-(5′-hydroxy-3′-oxo-1′,2′,3′,6′-tetrahydro-[1,1′-biphenyl]-3-yl)ethyl)benzenesulfonamide]
IC50 [1]: 200 nM
IC50 [2]: 400 nM

O=C1CCC(Cc2cccc(CCNS(=O)(=O)c3ccc(Cl)cc3)c2)=C1O [Compound 51525, 4-Chloro-N-(3-((2-hydroxy-3-oxocyclopent-1-en-1-yl)methyl)phenethyl)benzenesulfonamide]
IC50 [2]: 50 nM
